Target: Envelope glycoprotein gp160 (Human immunodeficiency virus type 1 group M subtype B (isolateBRU/LAI) (HIV-1)) (UniProt P03377)
Assay: Displacement of [3H]estradiol from human estrogen receptor alpha/estrogen receptor beta relative to estradiol

## N=C(N)N/N=C/C1=C(Cl)c2ccccc2CC1
  RBA: 0.004%

Source: ChEMBL document CHEMBL1151699, “Synthesis and biological evaluation of guanylhydrazone coactivator binding inhibitors for the estrogen receptor” (Bioorg Med Chem, 2008)
